The values that follow are results of earlier work, collected in patent US5064812A, “Metal complexes of N-acetyl-glucosaminyl-N-acetyl-muramoyl-L-alanyl-D-isoglutaminyl-(L)-mes o-diamino-pimelyl-(D-amide)-(L)-D-alanyl-D-alanine and their use in pharmaceuticals” (Sour Pliva, priority 1986, dated 1991).

The conditions of the series: prior art literature.

Regarding “N-acetyl-glucosaminyl-N-acetyl-muramoyl-L-alanyl-D-isoglutaminyl-(L)-meso- diamino-pimelyl-(D-amide)-(L)-D-alanyl-D-alanine [PMG]”, the pyrogenicity result is reported as “practically no toxicity or pyrogenicity” and the toxicity result is recorded as “practically no toxicity”.
